The results in this text go back to paper PMC8177754.

The data set deals with Nc1nc2c(ncn2[C@@H]2O[C@@H]3CO[P@](=O)(O)O[C@H]4[C@@H](O)[C@H](n5cnc6c(=O)[nH]c(N)nc65)O[C@@H]4CO[P@](=O)(O)O[C@H]3[C@H]2O)c(=O)[nH]1. The data set is described as follows: purified protein. The settings on record: pH 8.0.

The Km is the concentration of substrate that gives half-maximal velocity.

On to “(Vibrio cholerae O1 biovar El Tor str. N16961)”, for which the Km came to 18 ± 8.1 µM.
